## Measured affinities in a library of Ab-95 light chain variants

Binding partner: SARS-CoV-2 spike HR2 peptide, sequence PDVDLGDISGINAS.

Each scFv is VH, a (GGGGS)3 linker, VL, as in the parent Ab-95, and differs from it in the CDRs of the light chain only.
VH: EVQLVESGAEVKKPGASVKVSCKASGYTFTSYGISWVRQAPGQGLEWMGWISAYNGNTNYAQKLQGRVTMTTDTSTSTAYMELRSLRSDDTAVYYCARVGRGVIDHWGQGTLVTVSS
VL: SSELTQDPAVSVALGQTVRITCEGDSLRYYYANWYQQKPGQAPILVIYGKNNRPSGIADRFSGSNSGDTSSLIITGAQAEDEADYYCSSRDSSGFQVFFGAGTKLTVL

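Variants in AAYL52 differ from the parent at up to three CDR positions; double and triple changes were sampled at random. The assay is AlphaSeq: two haploid yeast populations carry antibody and antigen on their surface. Mating (16 h, 30 °C) was followed by selection of diploids and sequencing of their barcodes. Read counts were normalised to the haploid input and turned into Kd by a linear fit to BCL2-family pairs of known affinity, for each replicate. The assay was run in three technical replicates.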

Positions count from residue 1 of the parent VL; D25L puts L in place of D. The read-out is the apparent dissociation constant on a log10 scale (nM): the lower, the stronger. A pair that was not seen in that replicate is written "nd"; this usually means weak binding, but a binder can also be missed. Three control strains display no target. For library AAYL52, 28% of the pairings with them gave a signal, with a median of 3.91 and one signal in twenty below 2.90, so weak values seen in few replicates may be background. The control count says in how many pairings with the empty strains this scFv gave a signal, with their mean in brackets.

| changes | log10 Kd, replicates | empty controls |
|---|---|---|
| D25L+R90S+F95P | 4.60 nd 4.64 | 3 of 9 (4.12) |
| D25Y+K50T+N52L | 3.22 3.46 3.20 | 3 of 9 (4.36) |
| R90Q+G94M+V97C | nd nd nd | 0 of 9 |
| N33A+G94T | nd nd nd | 0 of 9 |
| G24E+D25N+S92G | nd nd 3.58 | 3 of 9 (4.39) |
| S26T+R53N+F98D | 3.89 3.67 4.59 | 1 of 9 (3.76) |
| L27D+A32C+Q96P | nd 3.69 4.33 | 2 of 9 (3.87) |
| Y31D+G49V+N52S | nd nd 4.03 | 3 of 9 (3.54) |
| E23F+N33G+K50S | nd 4.15 nd | 2 of 9 (3.70) |
| E23I+S88T | 3.76 3.68 3.13 | 2 of 9 (2.77) |
| N51C+R90V+V97S | 3.95 nd 3.62 | 2 of 9 (3.59) |
| P54K+R90D+S93I | 4.55 nd nd | 1 of 9 (3.91) |
| R53D+S89P+F98A | 3.58 nd nd | 2 of 9 (3.47) |
| K50C+P54T+S92H | 4.19 nd nd | 2 of 9 (3.48) |
| G49S+S55D+V97F | nd 4.24 nd | 1 of 9 (4.08) |
| N51P+S55R+G94S | 4.08 5.56 nd | 2 of 9 (3.70) |
| N51G+S88D+D91A | 2.24 2.09 1.36 | 2 of 9 (3.83) |
| Y30D+R90K+S92F | 1.93 1.77 1.26 | 1 of 9 (2.51) |
| Y31Q+R53T+S93T | 1.95 1.85 1.81 | 5 of 9 (4.45) |
| Y29F+N52M | 2.23 2.17 2.27 | 3 of 9 (3.76) |
| R53G+F95Y+V97E | 5.48 5.52 3.54 | 4 of 9 (3.53) |
| E23I+P54Q+V97I | 2.68 2.81 3.65 | 5 of 9 (3.61) |
| E23R+Y29F+R90E | nd 5.52 2.42 | 2 of 9 (3.10) |
| Y31S+N51M+S93M | 4.37 3.70 4.44 | 2 of 9 (4.24) |
| G94L+Q96H | 2.93 3.04 3.06 | 2 of 9 (4.51) |
| E23T+N33R+R90F | 3.94 4.87 3.91 | 2 of 9 (3.96) |
| Y31L+N51K+F98C | nd nd nd | 1 of 9 (5.54) |
| D25M+N51L+S93Q | 3.42 nd nd | 1 of 9 (4.26) |
| A32M | 2.41 2.29 2.28 | 0 of 9 |
| L27G+N33W+S88V | nd 5.09 nd | 3 of 9 (3.83) |
| N33I+P54L+F98V | 3.91 nd nd | 3 of 9 (3.78) |
| D25Y+R53A+F98K | nd 5.25 nd | 2 of 9 (3.38) |
| G24Q+N33D+Q96G | nd 5.54 nd | 2 of 9 (3.12) |
| Y31I+R53A+S88N | nd 4.75 nd | 3 of 9 (4.16) |
| R90S+S92N+F98G | 3.83 3.03 2.94 | 5 of 9 (3.13) |
| S26D+Y29K+S89K | 2.57 3.28 nd | 1 of 9 (5.32) |
| D25N+F95M+Q96T | 3.22 3.01 4.13 | 2 of 9 (3.98) |
| R53F+S93N+G94W | 3.62 nd nd | 5 of 9 (4.01) |
| L27K+Y30Q | 1.59 1.54 1.25 | 1 of 9 (4.46) |
| Y30T+K50N | 1.24 1.32 0.73 | 2 of 9 (3.80) |
| E23G+L27D+N52Q | 3.36 3.05 3.95 | 2 of 9 (4.74) |
| E23M+N52D+S89I | 2.51 2.19 2.10 | 1 of 9 (3.80) |
| N33W+P54I+S92D | 4.07 3.37 nd | 2 of 9 (3.53) |
| D25E | 1.88 1.91 1.81 | 3 of 9 (3.69) |
| L27R+A32E+R53T | nd 4.30 nd | 2 of 9 (3.57) |
| E23P+S26E+S88L | nd nd nd | 2 of 9 (4.32) |
| L27M+A32Q+S92W | 2.85 4.51 2.32 | 2 of 9 (3.66) |
| R28L+Y30E+F95V | 2.11 2.19 1.64 | 3 of 9 (4.15) |

Excerpt, the final 7 entries:

{"changes": "E23M+N52D+S89I", "log10 Kd, replicates": "2.51 2.19 2.10", "empty controls": "1 of 9 (3.80)"}
{"changes": "N33W+P54I+S92D", "log10 Kd, replicates": "4.07 3.37 nd", "empty controls": "2 of 9 (3.53)"}
{"changes": "D25E", "log10 Kd, replicates": "1.88 1.91 1.81", "empty controls": "3 of 9 (3.69)"}
{"changes": "L27R+A32E+R53T", "log10 Kd, replicates": "nd 4.30 nd", "empty controls": "2 of 9 (3.57)"}
{"changes": "E23P+S26E+S88L", "log10 Kd, replicates": "nd nd nd", "empty controls": "2 of 9 (4.32)"}
{"changes": "L27M+A32Q+S92W", "log10 Kd, replicates": "2.85 4.51 2.32", "empty controls": "2 of 9 (3.66)"}
{"changes": "R28L+Y30E+F95V", "log10 Kd, replicates": "2.11 2.19 1.64", "empty controls": "3 of 9 (4.15)"}

Data: MIT Lincoln Laboratory AlphaSeq set, Engelhart et al. 2022, doi:10.1038/s41597-022-01779-4, as distributed in FLAb.